# In US6864402B1, “Chronic hepatitis virus infection and clonal hepatocellular carcinoma in mouse repopulated livers” (Albert Einstein College of Medicine of Yeshiva University, priority 1998, dated 2005):
# Test system: WHV replication
# Assay: Antiviral studies in WHV replicating chimeric uPA/RAG-2 mice (serum WHV DNA dot blot)
# Assay type: in vivo
substance,measurement,setting,value
Interferon-alpha-2b,WHV replication (serum dot blot WHV DNA) during treatment,"mouse #1063, interferon-alpha-2b 135 IU/g body weight intramuscularly daily, after 15 days",greater than four logs to non-detectable levels
same,"WHV replication after withdrawal of agent, compared with pretreatment","mouse #1063, upon withdrawal of interferon-alpha",rebounded to levels higher than pretreatment WHV levels
same,WHV replication (serum WHV DNA) during treatment,"mouse #1418 (higher WHV pretreatment levels), interferon-alpha-2b 135 IU/g i.m. daily for 15 days",only a limited response
same,WHV replication after withdrawal of agent,"mouse #1418, after drug withdrawal",rebound effect upon viral replication similar to mouse #1063
